Earlier results as cited in patent US20110195912A1, “Oligomer-Protease Inhibitor Conjugates” (Nektar Therapeutics, priority 2008, published 2011).

Tested on: HCV genotype 1
Conditions: in combination with ribavirin; patients with HCV genotype 1 infection

pegIFN: PEGylated interferon-α2, current standard of treatment alone or in combination with ribavirin
patients in whom combination treatment is effective: 50%
